One compound from PubChem BioAssay AID1519 (National Center for Advancing Translational Sciences (NCATS), 2009) can be followed below.

SMILES strings stand for the structures. The list shows a part of the results, in another mix than the full data. Inconclusive results are not listed. Calls of active or inactive are those of the source. Calls come from the whole dose curve.
% is set by controls: 0 for no effect and ±100 for the full control effect.

This test is described as follows: qHTS Assay for Lipid Storage Modulators. The following applies: Drosophila S3 cells, BODIPY lipid droplet/cell ratio, laser cytometry, cells loaded with oleic acid; at 25.7 µM (top of the series).
In the case of `NC(=O)Nc1ccc([As](=O)(O)O)cc1`, the activity change, negative = inhibition is inactive: -2.62%.
